Earlier results on 1 compound are cited in patent US5167963A, “8,10-dideazatetrahydrofolic acid derivatives” (SRI International, priority 1990, dated 1992).

SMILES strings stand for the structures.

The conditions of the data set: in words; DeGraw et al; cited from earlier work.

With `Nc1nc2ccc(CNc3ccc(C(=O)N[C@@H](CCC(=O)O)C(=O)O)cc3)nc2c(=O)[nH]1` [8-deazafolic acid], the antifolate activity result is on record as “active antifolates”.
